From the supplement of paper PMC5998384

Legend:
HeLa Kyoto [1] = experiment: thermal stability score vs G1/S (z-score of summed log2 fold changes over temperatures); higher = more thermally stable than in G1/S
HeLa Kyoto [2] = experiment: solubility change mitosis vs G1/S (difference of NP-40 vs SDS log2 ratios) (log2 ratio difference); higher = more soluble in mitosis
HeLa Kyoto [3] = experiment: solubility in G1/S (NP-40 vs SDS abundance) (log2 ratio); higher = more soluble; conditions: cell cycle stage: G1/S
HeLa Kyoto [4] = experiment: melting temperature (median over replicates), in situ; higher = more thermally stable
[5] = cell cycle stage: early G1 (4.5 h after nocodazole release)
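Throughout, for melting temperature (median over replicates), in situ: HeLa Kyoto cells synchronized by double thymidine or nocodazole block, proteins quantified by TMT10plex mass spectrometry, three independent biological replicates.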
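Throughout, for solubility change mitosis vs G1/S (difference of NP-40 vs SDS log2 ratios): synchronized HeLa Kyoto cells (double thymidine block for G1/S, nocodazole release for mitosis), protein amounts in NP-40 versus SDS lysates quantified by mass spectrometry, three biological replicates.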
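Throughout, for solubility in G1/S (NP-40 vs SDS abundance): HeLa Kyoto cells arrested at G1/S by double thymidine block, proteins quantified by TMT10plex mass spectrometry in mild NP-40 versus SDS extracts, three biological replicates.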
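Throughout, for thermal stability score vs G1/S (z-score of summed log2 fold changes over temperatures): synchronized HeLa Kyoto cells, proteins quantified by TMT10plex mass spectrometry, three biological replicates, mitosis taken 0.5 h after nocodazole release, G1/S directly after double thymidine block.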

| Substance | thermal stability score (HeLa Kyoto [1]; [5]) | thermal stability score (HeLa Kyoto [1]; cell cycle stage: mitosis) | solubility change mitosis (log2) (HeLa Kyoto [2]) | solubility in G1/S (log2) (HeLa Kyoto [3]) | melting temperature (HeLa Kyoto [4]; cell cycle stage: G1/S) [°C] | melting temperature (HeLa Kyoto [4]; cell cycle stage: mitosis) [°C] |
| --- | --- | --- | --- | --- | --- | --- |
| CUL3 (sequence left out) | -0.45 | -1.27 | -0.0896 | -0.0642 | 54.8 | 53.8 |
| MAAAAAMAEQESARNGGRNRGGVQRVEGKLRASVEKGDYYEAHQMYRTLFFRYMSQSKHTEARELMYSGALLFFSHGQQNSAADLSMLVLESLEKAEVEVADELLENLAKVFSLMDPNSPERVTFVSRALKWSSGGSGKLGHPRLHQLLALTLWKEQNYCESRYHFLHSADGEGCANMLVEYSTSRGFRSEVDMFVAQAVLQFLCLKNKSSASVVFTTYTQKHPSIEDGPPFVEPLLNFIWFLLLAVDGGKLTVFTVLCEQYQPSLRRDPMYNEYLDRIGQLFFGVPPKQTSSYGGLLGNLLTSLMGSSEQEDGEESPSDGSPIELD [GET4] | 0.593 | 1.06 | -0.166 | 0.123 | 50.7 | 49.8 |
| MAAAEEEDGGPEGPNRERGGAGATFECNICLETAREAVVSVCGHLYCWPCLHQWLETRPERQECPVCKAGISREKVVPLYGRGSQKPQDPRLKTPPRPQGQRPAPESRGGFQPFGDTGGFHFSFGVGAFPFGFFTTVFNAHEPFRRGTGVDLGQGHPASSWQDSLFLFLAIFFFFWLLSI [RNF5] |  |  | -0.128 | 0.229 | 52.9 | 52 |
| MAAPLLHTRLPGDAAASSSAVKKLGASRTGISNMRALENDFFNSPPRKTVRFGGTVTEVLLKYKKGETNDFELLKNQLLDPDIKDDQIINWLLEFRSSIMYLTKDFEQLISIILRLPWLNRSQTVVEEYLAFLGNLVSAQTVFLRPCLSMIASHFVPPRVIIKEGDVDVSDSDDEDDNLPANFDTCHRALQIIARYVPSTPWFLMPILVEKFPFVRKSERTLECYVHNLLRISVYFPTLRHEILELIIEKLLKLDVNASRQGIEDAEETATQTCGGTDSTEGLFNMDEDEETEHETKAGPERLDQMVHPVAERLDILMSLVLSYMKDVCYVDGKVDNGKTKDLYRDLINIFDKLLLPTHASCHVQFFMFYLCSFKLGFAEAFLEHLWKKLQDPSNPAIIRQAAGNYIGSFLARAKFIPLITVKSCLDLLVNWLHIYLNNQDSGTKAFCDVALHGPFYSACQAVFYTFVFRHKQLLSGNLKEGLQYLQSLNFERIVMSQLNPLKICLPSVVNFFAAITNKYQLVFCYTIIERNNRQMLPVIRSTAGGDSVQICTNPLDTFFPFDPCVLKRSKKFIDPIYQVWEDMSAEELQEFKKPMKKDIVEDEDDDFLKGEVPQNDTVIGITPSSFDTHFRSPSSSVGSPPVLYMQPSPL [RRN3] | -1.36 | 1.91 | 0.109 | -0.182 | 51.5 | 52 |
| MAAQALALLREVARLEAPLEELRALHSVLQAVPLNELRQQAAELRLGPLFSLLNENHREKTTLCVSILERLLQAMEPVHVARNLRVDLQRGLIHPDDSVKILTLSQIGRIVENSDAVTEILNNAELLKQIVYCIGGENLSVAKAAIKSLSRISLTQAGLEALFESNLLDDLKSVMKTNDIVRYRVYELIIEISSVSPESLNYCTTSGLVTQLLRELTGEDVLVRATCIEMVTSLAYTHHGRQYLAQEGVIDQISNIIVGADSDPFSSFYLPGFVKFFGNLAVMDSPQQICERYPIFVEKVFEMIESQDPTMIGVAVDTVGILGSNVEGKQVLQKTGTRFERLLMRIGHQSKNAPVELKIRCLDAISSLLYLPPEQQTDDLLRMTESWFSSLSRDPLELFRGISSQPFPELHCAALKVFTAIANQPWAQKLMFNSPGFVEYVVDRSVEHDKASKDAKYELVKALANSKTIAEIFGNPNYLRLRTYLSEGPYYVKPVSTTAVEGAE [PSMD5] | 0.755 | 1.31 | -0.147 | 0.0767 | 52.3 | 51.1 |
| MAEASPHPGRYFCHCCSVEIVPRLPDYICPRCESGFIEELPEETRSTENGSAPSTAPTDQSRPPLEHVDQHLFTLPQGYGQFAFGIFDDSFEIPTFPPGAQADDGRDPESRRERDHPSRHRYGARQPRARLTTRRATGRHEGVPTLEGIIQQLVNGIITPATIPSLGPWGVLHSNPMDYAWGANGLDAIITQLLNQFENTGPPPADKEKIQALPTVPVTEEHVGSGLECPVCKDDYALGERVRQLPCNHLFHDGCIVPWLEQHDSCPVCRKSLTGQNTATNPPGLTGVSFSSSSSSSSSSSPSNENATSNS [RNF126] | -1.11 | -0.316 |  |  |  |  |
| MAKERCLKKSFQDSLEDIKKRMKEKRNKNLAEIGKRRSFIAAPCQIITNTSTLLKNYQDNNKMLVLALENEKSKVKEAQDIILQLRKECYYLTCQLYALKGKLTSQQTVEPAQNQEICSSGMDPNSDDSSRNLFVKDLPQIPLEETELPGQGESFQIEDQIPTIPQDTLGVDFDSGEAKSTDNVLPRTVSVRSSLKKHCNSICQFDSLDDFETSHLAGKSFEFERVGFLDPLVNMHIPENVQHNACQWSKDQVNLSPKLIQPGTFTKTKEDILESKSEQTKSKQRDTQERKREEKRKANRRKSKRMSKYKENKSENKKTVPQKKMHKSVSSNDAYNFNLEEGVHLTPFRQKVSNDSNREENNESEVSLCESSGSGDDSDDLYLPTCKYIQNPTSNSDRPVTRPLAKRALKYTDEKETEGSKPTKTPTTTPPETQQSPHLSLKDITNVSLYPVVKIRRLSLSPKKNKASPAVALPKRRCTASVNYKEPTLASKLRRGDPFTDLCFLNSPIFKQKKDLRRSKKRALEVSPAKEAIFILYYVREFVSRFPDCRKCKLETHICLR [SGOL1] |  |  | 0.46 | -0.682 |  |  |
| MAMAMSDSGASRLRRQLESGGFEARLYVKQLSQQSDGDRDLQEHRQRIQALAEETAQNLKRNVYQNYRQFIETAREISYLESEMYQLSHLLTEQKSSLESIPLTLLPAAAAAGAAAASGGEEGVGGAGGRDHLRGQAGFFSTPGGASRDGSGPGEEGKQRTLTTLLEKVEGCRHLLETPGQYLVYNGDLVEYDADHMAQLQRVHGFLMNDCLLVATWLPQRRGMYRYNALYSLDGLAVVNVKDNPPMKDMFKLLMFPESRIFQAENAKIKREWLEVLEDTKRALSEKRRREQEEAAAPRGPPQVTSKATNPFEDDEEEEPAVPEVEEEKVDLSMEWIQELPEDLDVCIAQRDFEGAVDLLDKLNHYLEDKPSPPPVKELRAKVEERVRQLTEVLVFELSPDRSLRGGPKATRRAVSQLIRLGQCTKACELFLRNRAAAVHTAIRQLRIEGATLLYIHKLCHVFFTSLLETAREFEIDFAGTDSGCYSAFVVWARSAMGMFVDAFSKQVFDSKESLSTAAECVKVAKEHCQQLGDIGLDLTFIIHALLVKDIQGALHSYKEIIIEATKHRNSEEMWRRMNLMTPEALGKLKEEMKSCGVSNFEQYTGDDCWVNLSYTVVAFTKQTMGFLEEALKLYFPELHMVLLESLVEIILVAVQHVDYSLRCEQDPEKKAFIRQNASFLYETVLPVVEKRFEEGVGKPAKQLQDLRNASRLIRVNPESTTSVV [EXOC8] | 0.41 | 0.98 | -0.108 | 0.00864 | 49.9 | 48.9 |
| MAMESTATAAVAAELVSADKIEDVPAPSTSADKVESLDVDSEAKKLLGLGQKHLVMGDIPAAVNAFQEAASLLGKKYGETANECGEAFFFYGKSLLELARMENGVLGNALEGVHVEEEEGEKTEDESLVENNDNIDEEAREELREQVYDAMGEKEEAKKTEDKSLAKPETDKEQDSEMEKGGREDMDISKSAEEPQEKVDLTLDWLTETSEEAKGGAAPEGPNEAEVTSGKPEQEVPDAEEEKSVSGTDVQEECREKGGQEKQGEVIVSIEEKPKEVSEEQPVVTLEKQGTAVEVEAESLDPTVKPVDVGGDEPEEKVVTSENEAGKAVLEQLVGQEVPPAEESPEVTTEAAEASAVEAGSEVSEKPGQEAPVLPKDGAVNGPSVVGDQTPIEPQTSIERLTETKDGSGLEEKVRAKLVPSQEETKLSVEESEAAGDGVDTKVAQGATEKSPEDKVQIAANEETQEREEQMKEGEETEGSEEDDKENDKTEEMPNDSVLENKSLQENEEEEIGNLELAWDMLDLAKIIFKRQETKEAQLYAAQAHLKLGEVSVESENYVQAVEEFQSCLNLQEQYLEAHDRLLAETHYQLGLAYGYNSQYDEAVAQFSKSIEVIENRMAVLNEQVKEAEGSSAEYKKEIEELKELLPEIREKIEDAKESQRSGNVAELA[skipping about 120 residues] [NASP] | -1.08 | 1.21 | -0.051 | 0.232 | 51.3 | 52.4 |
| MAPQKHGGGGGGGSGPSAGSGGGGFGGSAAVAAATASGGKSGGGSCGGGGSYSASSSSSAAAAAGAAVLPVKKPKMEHVQADHELFLQAFEKPTQIYRFLRTRNLIAPIFLHRTLTYMSHRNSRTNIKRKTFKVDDMLSKVEKMKGEQESHSLSAHLQLTFTGFFHKNDKPSPNSENEQNSVTLEVLLVKVCHKKRKDVSCPIRQVPTGKKQVPLNPDLNQTKPGNFPSLAVSSNEFEPSNSHMVKSYSLLFRVTRPGRREFNGMINGETNENIDVNEELPARRKRNREDGEKTFVAQMTVFDKNRRLQLLDGEYEVAMQEMEECPISKKRATWETILDGKRLPPFETFSQGPTLQFTLRWTGETNDKSTAPIAKPLATRNSESLHQENKPGSVKPTQTIAVKESLTTDLQTRKEKDTPNENRQKLRIFYQFLYNNNTRQQTEARDDLHCPWCTLNCRKLYSLLKHLKLCHSRFIFNYVYHPKGARIDVSINECYDGSYAGNPQDIHRQPGFAFSRNGPVKRTPITHILVCRPKRTKASMSEFLESEDGEVEQQRTYSSGHNRLYFHSDTCLPLRPQEMEVDSEDEKDPEWLREKTITQIEEFSDVNEGEKEVMKLWNLHVMKHGFIADNQMNHACMLFVENYGQKIIKKNLCRNFMLHLVSMHDFNLISIMSIDKAVTKLREMQQKLEKGESASPANEEITEEQNGTANGFSEINSKEKALETDSVSGVSKQSKKQKL [SUZ12] | 1.55 | 3.9 | 0.22 | -0.452 | 48.2 | 50.1 |
| MEEQPQMQDADEPADSGGEGRAGGPPQVAGAQAACSEDRMTLLLRLRAQTKQQLLEYKSMVDASEEKTPEQIMQEKQIEAKIEDLENEIEEVKVAFEIKKLALDRMRLSTALKKNLEKISRQSSVLMDNMKHLLELNKLIMKSQQESWDLEEKLLDIRKKRLQLKQASESKLLEIQTEKNKQKIDLDSMENSERIKIIRQNLQMEIKITTVIQHVFQNLILGSKVNWAEDPALKEIVLQLEKNVDMM [CENPH] |  |  | 0.656 | -0.161 |  |  |
| MSVLRPLDKLPGLNTATILLVGTEDALLQQLADSMLKEDCASELKVHLAKSLPLPSSVNRPRIDLIVFVVNLHSKYSLQNTEESLRHVDASFFLGKVCFLATGAGRESHCSIHRHTVVKLAHTYQSPLLYCDLEVEGFRATMAQRLVRVLQICAGHVPGVSALNLLSLLRSSEGPSLEDL [CENPM] |  |  | -0.14 | 0.195 |  |  |
